Source: patent US8653263B2 (Janssen Pharmaceutica, priority 2009, dated 2014)

By UniProt entry, the sequences of proteins in these tests, tags left out.
UniProt O43614, whole entry: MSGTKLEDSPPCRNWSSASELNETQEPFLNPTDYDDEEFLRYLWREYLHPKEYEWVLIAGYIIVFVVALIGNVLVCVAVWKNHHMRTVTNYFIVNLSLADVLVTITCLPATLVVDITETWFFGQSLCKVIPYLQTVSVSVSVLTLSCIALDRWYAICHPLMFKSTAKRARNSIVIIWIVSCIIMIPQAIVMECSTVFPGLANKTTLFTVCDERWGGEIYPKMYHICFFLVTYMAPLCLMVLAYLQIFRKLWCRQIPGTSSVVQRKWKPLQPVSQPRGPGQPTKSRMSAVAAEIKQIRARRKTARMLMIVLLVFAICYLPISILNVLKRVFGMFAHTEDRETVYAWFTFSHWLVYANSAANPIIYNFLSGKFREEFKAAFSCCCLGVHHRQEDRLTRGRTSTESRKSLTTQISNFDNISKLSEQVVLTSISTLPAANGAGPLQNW

Molecular target: human orexin-2 receptor (Homo sapiens (Human), UniProt O43614)
Assay: Human orexin 2 receptor radioligand binding ([3H]-EMPA competition)
Settings: read-out: OR 2 Ki; HEK293 cells stably expressing human orexin-2 receptor; [3H]-EMPA 5 nM final; apparent Ki=IC50/(1+C/Kd), Kd=2 nM

Row | Ki | Structure (SMILES)
1 | 10 µM | COc1ccccc1C(=O)N1CC2CN(c3nccc(C)n3)CC2C1 (stereo not shown) [Example 200, (2-Methoxy-phenyl)-[5-(4-methyl-pyrimidin-2-yl)-hexahydro-pyrrolo[3,4-c]pyrrol-2-yl]-methanone]
2 | 10 µM | Cc1nc(N2CC3CN(C(=O)c4cc(F)ccc4-c4ncccn4)CC3C2)cc(=O)[nH]1 (stereo not shown) [Example 256, 6-{5-[(5-Fluoro-2-pyrimidin-2-ylphenyl)carbonyl]hexahydropyrrolo[3,4-c]pyrrol-2(1H)-yl}-2-methylpyrimidin-4(3H)-one]
3 | 10 µM | Cc1cc(C)nc(N2CC3CN(C(=O)c4ccccc4-c4ncnn4C)CC3C2)n1 (stereo not shown) [Example 307, 2-(4,6-Dimethylpyrimidin-2-yl)-5-{[2-(1-methyl-1H-1,2,4-triazol-5-yl)phenyl]carbonyl}octahydropyrrolo[3,4-c]pyrrole]
4 | 10 µM | Cc1cc(C)nc(N2CC3CN(C(=O)c4cnccc4-n4ccnn4)CC3C2)n1 (stereo not shown) [Example 329, [5-(4,6-Dimethyl-pyrimidin-2-yl)-hexahydro-pyrrolo[3,4-c]pyrrol-2-yl]-(4-[1,2,3]triazol-1-yl-pyridin-3-yl)-methanone]
5 | 10 µM | COc1cc(Br)c(C(=O)N2CC3CN(c4nc(C)cc(C)n4)CC3C2)cc1OC (stereo not shown) [Example 333, (2-Bromo-4,5-dimethoxy-phenyl)-[5-(4,6-dimethyl-pyrimidin-2-yl)-hexahydro-pyrrolo[3,4-c]pyrrol-2-yl]-methanone]
6 | 10 µM | COc1cc(C(=O)N2CC3CN(c4nc(C)cc(C)n4)CC3C2)c(-n2ccnn2)cc1OC (stereo not shown) [Example 341, (4,5-Dimethoxy-2-[1,2,3]triazol-1-yl-phenyl)-[5-(4,6-dimethyl-pyrimidin-2-yl)-hexahydro-pyrrolo[3,4-c]pyrrol-2-yl]-methanone]
7 | 10 µM | O=S(=O)(c1ccccc1-c1ccccc1)N1CC2CN(c3ccc(C(F)(F)F)cn3)CC2C1 (stereo not shown) [Example 356, 2-([1,1′-Biphenyl]-2-ylsulfonyl)-5-(5-(trifluoromethyl)pyridin-2-yl)octahydropyrrolo[3,4-c]pyrrole]
